# Measurements from PubChem BioAssay AID652054 (National Center for Advancing Translational Sciences (NCATS), 2013).
# The chains behind the UniProt entries cited, without tags or fusion partners.
# UniProt P35462, whole entry: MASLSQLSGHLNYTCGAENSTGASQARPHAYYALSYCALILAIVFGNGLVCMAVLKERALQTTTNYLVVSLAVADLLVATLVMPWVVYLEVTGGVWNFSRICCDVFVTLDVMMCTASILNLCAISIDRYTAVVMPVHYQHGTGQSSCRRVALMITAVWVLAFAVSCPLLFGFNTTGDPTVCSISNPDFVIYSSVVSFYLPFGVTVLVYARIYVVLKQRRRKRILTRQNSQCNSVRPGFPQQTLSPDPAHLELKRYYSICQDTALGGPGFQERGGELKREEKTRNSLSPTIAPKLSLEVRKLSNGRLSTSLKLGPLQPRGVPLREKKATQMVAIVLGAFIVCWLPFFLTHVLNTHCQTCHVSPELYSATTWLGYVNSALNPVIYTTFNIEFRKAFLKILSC
# The list shows a part of the results, in another mix than the full data. Records with an inconclusive call do not appear. The source made the active and inactive calls. Cut-off read from the data, not from the text of the source: active = max response below about -50%; inconclusive = no clear call, values can overlap the other calls; inactive = above that.
# Target: D(3) dopamine receptor (Homo sapiens) (UniProt P35462)
# Test: qHTS of D3 Dopamine Receptor Antagonist: qHTS
# Conditions: D3R cells, DiscoveRx beta-arrestin luminescence, antagonist mode; hits give low values
# Source text: D3 DARs represent a very important target for the treatment of several neuropsychiatric disorders. Indeed, one of the most promising therapeutic applications for the D3 DAR is in the area of addiction and related disorders. […] These findings have been observed with a number of addictive substances including cocaine, amphetamine, nicotine, and alcohol. […] Antagonism of the D3 DAR may also be therapeutic in the treatment of schizophrenia or psychosis. […] Since the D3 DAR is expressed in areas of the CNS associated with the control of mood and emotion, it has been hypothesized that selective antagonism of the D3 DAR may be effective in treating psychosis without inducing the motor side effects typically seen with D2 DAR antagonists.
# This part of the project aims to discover novel antagonist.
# NIH Chemical Genomics Center [NCGC]
# NIH Molecular Libraries Probe Centers Network [MLPCN]
# Assay Submitter (PI): David Sibley, NINDS
# Freshly passaged cells are plated in 1536 well white, solid bottom plates at a density of 1500 cells/well in 3microl of complete media. After an overnight incubation at 37 degrees C in 5% CO2, cells are loaded with 23nl of test compound from the compound library (as well as dopamine controls) using a 1536 pintool and incubated at 37 degrees C for 90 minutes. […] Following incubation, luminescence is measured on a ViewLux CCD-based luminometer reader using a 20 sec exposure time.
# % is set by controls: 0 for no effect and ±100 for the full control effect.
row,SMILES,"max response, negative = inhibition"
1,CCC(=O)N(c1ccccc1)C1(COC)CCN(CCc2cccs2)CC1,inactive: 0%
2,CCC(=O)N(c1ccccc1)C1(COC)CCN(CCn2nnn(CC)c2=O)CC1,inactive: -12.9%
